Test results as given in patent US6610270B1, “In vivo determination of metabolic function for use in therapy management” (Xanthus Life Sciences, Inc., priority 1998, dated 2003).

How the values were obtained:
[1] = oral ingestion, in two hours
[2] = test system: α-ketoacid decarboxylase (KAD); details: n = 3

- cleared from the system [1]: more than 70%
- Metabolic Response Index (MRI), BASAL ([2]; 2 mg/kg oral, fasting adult male): 145 +/− 24 (n = 3) MicroMol/kg/hr.
- Metabolic Response Index (MRI), MET+ ([2]; after 100 mg/kg methionine): 105 +/− 26 (n = 3) MicroMol/kg/hr.
Substance: N-acetyl-ABU [Aminobutyrate Metaprobe]
- LI, load tolerance index (BASAL minus MET+) [2]: 40 +/− 9 (n = 3) MicroMol/kg/hr.
